Measurements: patent publication US20230365958

Chains of the proteins cited; added tags and fusions are not shown.
human alpha-1-anti-trypsin, P01009, UniProt P01009, whole entry, looked up: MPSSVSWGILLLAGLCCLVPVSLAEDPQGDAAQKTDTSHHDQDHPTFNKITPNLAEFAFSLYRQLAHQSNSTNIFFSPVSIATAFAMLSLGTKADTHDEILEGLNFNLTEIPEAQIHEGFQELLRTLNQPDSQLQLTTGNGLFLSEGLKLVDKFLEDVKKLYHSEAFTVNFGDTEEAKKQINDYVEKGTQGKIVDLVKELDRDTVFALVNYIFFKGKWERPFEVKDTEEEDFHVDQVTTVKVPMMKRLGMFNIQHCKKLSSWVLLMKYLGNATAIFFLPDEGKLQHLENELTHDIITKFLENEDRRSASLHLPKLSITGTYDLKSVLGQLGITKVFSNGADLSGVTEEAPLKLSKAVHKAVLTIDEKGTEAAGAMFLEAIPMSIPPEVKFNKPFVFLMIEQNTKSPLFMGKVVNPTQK

Biological target: human alpha-1-anti-trypsin, P01009

B1: wild-type human neutrophil elastase (ELANE) (protein)
chain: IVGGRRARPHAWPFMVSLQLRGGHFCGATLIAPNFVMSAAHCVANVNVRAVRVVLGAHNLSRREPTRQVFAVQRIFENGYDPVNLLNDIVILQLNGSATINANVQVAQLPAQGRRLGNGVQCLAMGWGLLGRNRGIASVLQELNVTVVTSLCRRSNVCTLVRGRQAGVCFGDSGSPLVCNGLIHGIASFVRGGCASGLYPDAFAPVAQFVNWIDSIIQ
Work on B1 yielded a Slope (linear regression of the decrease in enzyme activity versus A1AT concentration, 0-20 nM A1AT, colorimetric substrate assay) of -3.76.
